Measured values taken from ChEMBL document CHEMBL1147236, “Semiplenamides A-G, fatty acid amides from a Papua New Guinea collection of the marine cyanobacterium Lyngbya semiplena” (J Nat Prod, 2003).

Protein sequences, listed by entry. Tags and fused reporters are not part of them.
UniProt P20272, whole entry: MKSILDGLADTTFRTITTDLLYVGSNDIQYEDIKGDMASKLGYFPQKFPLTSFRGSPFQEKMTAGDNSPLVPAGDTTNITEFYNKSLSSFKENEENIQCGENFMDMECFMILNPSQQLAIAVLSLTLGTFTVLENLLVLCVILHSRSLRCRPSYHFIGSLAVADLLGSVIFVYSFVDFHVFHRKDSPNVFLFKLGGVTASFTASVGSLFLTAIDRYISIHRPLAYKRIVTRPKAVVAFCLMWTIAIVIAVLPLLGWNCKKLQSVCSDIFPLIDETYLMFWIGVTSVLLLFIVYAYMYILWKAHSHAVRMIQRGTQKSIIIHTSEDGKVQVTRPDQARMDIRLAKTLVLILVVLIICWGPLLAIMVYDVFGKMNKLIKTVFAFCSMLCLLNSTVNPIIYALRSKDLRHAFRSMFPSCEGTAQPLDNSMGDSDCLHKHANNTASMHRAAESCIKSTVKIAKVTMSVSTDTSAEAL

Biological target: Cannabinoid receptor 1 (Rattus norvegicus, UniProt P20272)
Experiment: Displacement of [3H]SR141716A from CB1 receptor in CD rat brain membranes
Format: cell membranes, Membrane

`CCCCC/C=C\C/C=C\C/C=C\C/C=C\CCCC(=O)NCCO` [ANANDAMIDE] gave a Ki of 0.4 µM.
